Assay results as given in patent publication US20250381110A1, “SKIN CARE COMPOSITION AND METHOD OF USING THE SAME” (THE PROCTER & GAMBLE COMPANY, priority 2024, published 2025).

System: p62-dependent mitophagy
Test: Luciferase-p62 assay (Fluc-p62 clearance) in mouse embryonic fibroblasts
Format: cell-based
Details: MEFs, 10 μM

SMILES: CC1=C2C[C@H]3[C@@H](CC=C4C[C@@H](O)CC[C@@]43C)[C@@H]2CC[C@]12O[C@@H]1C[C@H](C)CN[C@H]1[C@H]2C [Cyclopamine]
- % Activity over baseline (percentage of Luciferase-p62 clearance relative to baseline (mean luminescence in the absence of doxycycline induction)): 70.83%
- % Activity relative to Rapamycin (percentage of activity relative to rapamycin tested in the same experiment at the same concentration): 127.63%
